Laboratory results as given in patent publication US9956197B2 (priority 2013, dated 2018).

Assays:
[1] = test system: Lithium-pilocarpine induced status epilepticus; test: Lithium-pilocarpine induced status epilepticus model, prevention study; type: in vivo, Sprague-Dawley rats
[2] = test system: Lithium-pilocarpine induced status epilepticus; test: Lithium-pilocarpine induced status epilepticus model, intervention study; type: in vivo, Sprague-Dawley rats; settings: iv per table head, injection amount 46 mg/kg

Row | SMILES | Prevention (rat, ip) Protection % ([1]; injection amount 60 mg/kg) | Intervention (rat, iv) Protection % [2] | also measured
1 | C[C@@H](OC(N)=O)[C@@H](O)c1ccccc1Cl [Compound 4, 1-(2-chlorophenyl)-(S)-1-hydroxypropyl-(R)-2-carbamate] | ^a60 (50%) |  | 
2 | CC[C@H](OC(N)=O)[C@@H](O)c1ccccc1Cl [Compound 6, 1-(2-chlorophenyl)-(S)-1-hydroxybutyl-(S)-2-carbamate] | ^a60 (100%) |  | 
3 | C[C@@H](OC(N)=O)[C@H](O)c1c(Cl)cccc1Cl [Compound 46, 1-(2,6-dichlorophenyl)-(R)-1-hydroxypropyl-(R)-2-carbamate] | ^a60 (66.7%) |  | 
4 | CCCNC(=O)OC(C)C(O)c1ccccc1Cl (racemic) [Compound 30, 1-(2-chlorophenyl)-1-hydroxypropyl-2-N-propylcarbamate] |  | ^a46 (83.3%) | Prevention (rat, ip) Protection % ([1]; injection amount 73.6 mg/kg): ^a73.6 (50%)
5 | CC(OC(=O)NC1CC1)C(O)c1ccccc1Cl (racemic) [Compound 32, 1-(2-chlorophenyl)-1-hydroxypropyl-2-N-cyclopropylcarbamate] | ^a60 (100%) |  | 
6 | CC(C)[C@H](OC(N)=O)[C@@H](O)c1c(Cl)cccc1Cl | ^a60 (83.3%) | ^a46 (66.7%) | 
7 | CC(OC(N)=O)C(O)c1ccccc1Cl (racemic) [Compound 3, 1-(2-chlorophenyl)-1-hydroxypropyl-2-carbamate] |  | ^a46 (83.3%) | 
8 | C[C@H](OC(N)=O)[C@@H](O)c1ccc(Cl)cc1Cl [Compound 36, 1-(2,4-dichlorophenyl)-(S)-1-hydroxypropyl-(S)-2-carbamate] |  | ^a46 (66.7%) | Prevention (rat, ip) Protection % ([1]; injection amount 73.6 mg/kg): ^a73.6 (100%)
9 | C[C@H](OC(N)=O)[C@@H](O)c1cccc(Cl)c1Cl [Compound 38, 1-(2,3-dichlorophenyl)-(S)-1-hydroxypropyl-(S)-2-carbamate] |  |  | Prevention (rat, ip) Protection % ([1]; injection amount 73.6 mg/kg): ^a73.6 (100%)
10 | CCC(OC(N)=O)C(O)c1ccccc1Cl (racemic) [Compound 8, 1-(2-chlorophenyl)-1-hydroxybutyl-2-carbamate] | ^a60 (83.3%) |  | 
11 | CC(C)[C@H](OC(N)=O)[C@@H](O)c1ccccc1Cl [Compound 9, 1-(2-chlorophenyl)-(S)-1-hydroxy-3-methyl-butyl-(S)-2-carbamate] | ^a60 (83.3%) | ^a46 (66.7%) | 
12 | C[C@H](OC(N)=O)[C@H](O)c1ccccc1Cl [Compound 5, 1-(2-chlorophenyl)-(R)-1-hydroxypropyl-(S)-2-carbamate] |  | ^a46 (66.7%) | 
13 | C[C@H](OC(N)=O)[C@@H](O)c1c(Cl)cccc1Cl [Compound 37, 1-(2,6-dichlorophenyl)-(S)-1-hydroxypropyl-(S)-2-carbamate] |  |  | Prevention (rat, ip) Protection % ([1]; injection amount 35 mg/kg): ^a35 (100%)
14 | CNC(=O)OC(C)C(O)c1ccccc1Cl (racemic) [Compound 29, 1-(2-chlorophenyl)-1-hydroxypropyl-2-N-methylcarbamate] | ^a60 (100%) |  | 
15 | C[C@@H](OC(=O)NC1CC1)[C@H](O)c1ccccc1Cl [Compound 25, 1-(2-chlorophenyl)-(R)-1-hydroxypropyl-(R)-2-N-cyclopropylcarbamate] | ^a60 (100%) |  | 
16 | CCCC[C@H](OC(N)=O)[C@@H](O)c1ccc(Cl)cc1Cl [Compound 43, 1-(2,4-dichlorophenyl)-(S)-1-hydroxyhexyl-(S)-2-carbamate] |  | ^a46 (16.7%) | 
17 | CCCC[C@H](OC(N)=O)[C@@H](O)c1c(Cl)cccc1Cl [Compound 44, 1-(2,6-dichlorophenyl)-(S)-1-hydroxyhexyl-(S)-2-carbamate] |  | ^a46 (83.3%) | 
